The target in the test is T1, recombinant human 5HT6 receptor (Homo sapiens, UniProt P50406).
T1 construct: purchased Receptor Biology; host or cells: HEK-293
In words: Binding to the 5HT6 serotonin receptor ([3H]-LSD, HEK-293 cell membranes).

Chains of the proteins cited; added tags and fusions are not shown.
UniProt P50406, whole entry: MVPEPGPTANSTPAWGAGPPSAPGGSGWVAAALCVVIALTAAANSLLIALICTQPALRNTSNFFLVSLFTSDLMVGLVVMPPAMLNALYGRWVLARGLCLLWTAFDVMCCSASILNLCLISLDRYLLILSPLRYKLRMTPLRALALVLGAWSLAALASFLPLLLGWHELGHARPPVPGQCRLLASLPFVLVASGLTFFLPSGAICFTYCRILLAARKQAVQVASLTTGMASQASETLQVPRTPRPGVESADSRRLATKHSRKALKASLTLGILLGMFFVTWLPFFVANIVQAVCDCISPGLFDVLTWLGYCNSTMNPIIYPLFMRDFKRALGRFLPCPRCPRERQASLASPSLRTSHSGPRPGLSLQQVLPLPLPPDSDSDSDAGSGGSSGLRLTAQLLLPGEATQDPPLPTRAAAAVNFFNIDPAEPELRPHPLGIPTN

Consider `CN1CC=C(c2cn(S(=O)(=O)C3CCCCC3)c3ccc(Cl)cc23)CC1` [Example 2h, 5-Chloro-1-cyclohexanesulfonyl-3-(1-methyl-1,2,3,6-tetrahydropyridine-4-yl)-1H-indole], for which the inhibitory constant (Ki) (in general, a dissociation constant, usually derived from enzyme kinetics or from competition with a known ligand) was found to be 98.2 nM.
